Values of other authors in PMC8341375 (RSC Chemical Biology, 2021).

Sequences of proteins named here, by UniProt entry; tags and fusion partners are left off. A change or cut given only in a name is not applied to a line headed by its entry.
UniProt P11511: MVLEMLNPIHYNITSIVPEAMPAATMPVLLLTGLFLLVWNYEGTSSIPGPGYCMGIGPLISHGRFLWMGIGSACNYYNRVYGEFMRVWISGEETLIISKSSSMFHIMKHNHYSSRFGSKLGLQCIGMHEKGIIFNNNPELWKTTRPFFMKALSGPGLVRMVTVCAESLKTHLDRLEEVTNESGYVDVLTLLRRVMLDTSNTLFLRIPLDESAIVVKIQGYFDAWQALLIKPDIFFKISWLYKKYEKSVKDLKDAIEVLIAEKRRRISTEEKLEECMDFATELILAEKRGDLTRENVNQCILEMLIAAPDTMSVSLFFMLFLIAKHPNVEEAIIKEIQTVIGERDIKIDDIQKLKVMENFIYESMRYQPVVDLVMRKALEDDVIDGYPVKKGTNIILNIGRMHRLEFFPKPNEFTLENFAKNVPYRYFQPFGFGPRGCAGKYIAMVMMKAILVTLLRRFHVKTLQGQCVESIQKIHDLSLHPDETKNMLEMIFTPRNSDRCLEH

Target: aromatase (CYP19) (Homo sapiens, UniProt P11511)
Settings: competitive AI; cited from earlier work

CC/C(=C(\c1ccc(O)cc1)c1ccc(OCCN)cc1)c1ccccc1 [norendoxifen]
Ki: 35 nM
